GIV-Gai inh = GIV-Galpha-i interaction inhibition. AID 1224905. actives 0.42% (n = 210,000). percent of control (FP), % (test concentration not listed). Galpha-i3/FITC-GIV peptide fluorescence polarization, 90 min; stronger effect = lower value; scaled: aluminum fluoride 0%, vehicle 100%;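 active = replicate mean at 85% of control or lower, very high polarization wells dropped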;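 also: wells of about 15 µL received 100 nL stock; the first replicate is given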
HCMV UL50-53 inh = inhibitors of HCMV UL50-UL53 nuclear egress complex interaction. HTRF UL50-UL53 interaction, normalized percent inhibition. inhibition, % (test concentration not listed). 0.15% of 190,000 active. AID 1918969; in the data active = inhibition above about 27%, passing the limit was not always enough
Hits are given with their value. Sampled rows, rich in hits. Any-hit rate of the full collection: about 0.43%.

Screening CCOC(CNC(=O)c1sc2ncnc(N3CCN(c4ccc(OC)cc4)CC3)c2c1C)OCC returned GIV-Gai inh inactive and HCMV UL50-53 inh inactive.
CCCN1C(=O)/C(=C/c2c(N3CCCC3)nc3ccccn3c2=O)SC1=S was read as GIV-Gai inh -60 and HCMV UL50-53 inh inactive.
For C=CCN1C(=O)/C(=C/c2c(N3CCCCC3)nc3ccccn3c2=O)SC1=S the results were GIV-Gai inh -36.
C=CCN1C(=O)/C(=C\c2cccs2)SC1=S was read as HCMV UL50-53 inh inactive.
For CCCCN1C(=O)/C(=C/c2c(N3CCN(CCO)CC3)nc3ccccn3c2=O)SC1=S the results were GIV-Gai inh inactive.
Screening COCCCN1C(=O)/C(=C/c2c(N3CCN(C)CC3)nc3c(C)cccn3c2=O)SC1=S returned GIV-Gai inh 62 and HCMV UL50-53 inh inactive.
CC1CCN(c2nc3ccccn3c(=O)c2/C=C2/SC(=S)N(C3CCCCC3)C2=O)CC1 was read as GIV-Gai inh inactive.
Screening C=CCN1C(=O)/C(=C/c2c(Sc3ccccc3)nc3ccccn3c2=O)SC1=S returned GIV-Gai inh -36.
For Cc1cccn2c(=O)c(/C=C3\SC(=S)N(CCc4ccccc4)C3=O)c(N3CCCC3)nc12 the results were GIV-Gai inh inactive and HCMV UL50-53 inh inactive.
`CN1CCN(c2nc3ccccn3c(=O)c2/C=C2\SC(=S)N(Cc3ccco3)C2=O)CC1` gave GIV-Gai inh inactive and HCMV UL50-53 inh inactive.
Screening CCN1C(=O)/C(=C/c2c(N3CCCCC3)nc3ccccn3c2=O)SC1=S returned GIV-Gai inh -75 and HCMV UL50-53 inh inactive.
Screening CN1C(=O)/C(=C/C=C2/Sc3ccccc3N2CCO)SC1=S returned GIV-Gai inh inactive and HCMV UL50-53 inh inactive.
`C=CCN1/C(=C\C=C\c2n(CC=C)c3cc(Cl)c(Cl)cc3[n+]2CCCCCCCC)N(CCCCCCCC)c2cc(Cl)c(Cl)cc21` gave GIV-Gai inh -62.
`CCCCCCCCN1/C(=C/C=C/c2n(CCCCCCCC)c3cc(Cl)c(Cl)cc3[n+]2CCCCC)N(CCCCC)c2cc(Cl)c(Cl)cc21` gave GIV-Gai inh inactive.
`CCN(CC)c1ccc(/C=C/c2cc(=O)cc(C)o2)cc1` gave GIV-Gai inh -61 and HCMV UL50-53 inh inactive.
`CCN(CC)c1ccc(/C=C2/SC(=O)NC2=O)cc1` gave GIV-Gai inh inactive and HCMV UL50-53 inh inactive.
`Cc1c(C(=O)N2CCN(c3ccc([N+](=O)[O-])cc3)CC2)sc2ncn(CC(=O)N3CCCCC3)c(=O)c12` gave GIV-Gai inh inactive.
`CCC(O)(c1ccc(OC)cc1)C(CN1CCCC1)c1ccccc1` (stereo not drawn) gave GIV-Gai inh inactive and HCMV UL50-53 inh inactive.
CCCN1C(=S)N(CCO)C(=O)/C1=C/C=C1/Oc2ccccc2N1CCC(=O)O was read as GIV-Gai inh -20 and HCMV UL50-53 inh inactive.
For CCN1/C(=C/C=C2/C(=O)N(C)C(=S)N2C)Oc2ccccc21 the results were GIV-Gai inh inactive and HCMV UL50-53 inh inactive.
Screening COc1cccc(C(=O)c2sc3nsc(SCc4ccccc4)c3c2N)c1 returned GIV-Gai inh -42 and HCMV UL50-53 inh inactive.
For COc1cccc(C(=O)Nc2nnc(SCc3ccccc3)s2)c1 the results were HCMV UL50-53 inh inactive.
`CCC(C)C(=O)N1c2ccccc2C(N(C(=O)C(C)CC)c2ccccc2)CC1C` (stereo not drawn) gave GIV-Gai inh inactive.
Screening CCOC(=O)c1ccccc1NC(=O)CSc1[nH]c2ccccc2c(=O)c1C(=O)OC returned GIV-Gai inh inactive and HCMV UL50-53 inh inactive.
Clc1ccc(C2=CC(c3ccc(Br)cc3)n3ncnc3N2)s1 (stereo not drawn) was read as GIV-Gai inh -22.
`Cc1ccsc1C1C=C(c2ccc(Br)cc2)Nc2ncnn21` (stereo not drawn) gave GIV-Gai inh inactive.
`O=C(Nc1ccc2nc3c(=O)[nH]c(=O)[nH]c3nc2c1)C(F)(F)F` gave GIV-Gai inh -16.
For Cc1ccc2nc3[nH]c(=O)[nH]c(=O)c3nc2c1 the results were GIV-Gai inh inactive.
c1cncc(N=c2scc(-c3cccs3)n2C2CCCC2)c1 was read as HCMV UL50-53 inh inactive.
`CCN(CC)c1ccc(/C=C(/C#N)C(=O)NC(C)C)o1` gave GIV-Gai inh -102 and HCMV UL50-53 inh inactive.
For CCN(CCC#N)c1ccc(/C=C(\C#N)C(=O)NC(C)C)c(C)c1 the results were HCMV UL50-53 inh inactive.
For Nc1cccc2c1C(=O)N(CC(=O)NC1CCCc3ccccc31)C2=O (stereo not drawn) the results were HCMV UL50-53 inh inactive.
Screening CN(C)C(=O)C1CCN(S(=O)(=O)Cc2ccc(Cl)cc2)CC1 returned GIV-Gai inh inactive and HCMV UL50-53 inh inactive.
O=C(CSc1ccc2c3c(cccc13)C(=O)c1ccccc1-2)Nc1ccccc1 was read as GIV-Gai inh inactive.
For COCCCNC(=O)CSc1ccc2c3c(cccc13)C(=O)c1ccccc1-2 the results were GIV-Gai inh -73.
For CN(C)c1ccc(/C=C2/CCC/C(=C\c3ccc(N(C)C)cc3)C2=O)cc1 the results were GIV-Gai inh inactive and HCMV UL50-53 inh inactive.
For CC(C)/C=C1\CC/C(=C\c2ccc(N(C)C)cc2)C1=O the results were GIV-Gai inh -75.
Screening CC1=CC(=C2C(=O)NC(=O)NC2=O)C=C(C)N1c1ccccc1 returned GIV-Gai inh -4.9 and HCMV UL50-53 inh inactive.
For CC1=CC(=C2C(=O)NC(=S)NC2=O)C=C(C)N1CCc1ccccc1 the results were GIV-Gai inh inactive and HCMV UL50-53 inh inactive.
Screening COc1ccc(/C=C2\Oc3ccccc3N(CC(=O)N3CCC(C(N)=O)CC3)C2=O)cc1Br returned GIV-Gai inh inactive and HCMV UL50-53 inh inactive.
Screening CCc1ccc(COC(=O)c2nnn(-c3ccc(Br)cc3)c2C)cc1 returned GIV-Gai inh inactive and HCMV UL50-53 inh inactive.
`O=C(Nc1ccc(Cn2nnc3ccccc32)cc1)c1cccs1` gave GIV-Gai inh inactive and HCMV UL50-53 inh inactive.
COc1ccc(C2C(C(C)=O)=C(C)N=c3s/c(=C\c4cc(C)n(-c5ccccc5)c4C)c(=O)n32)c(OC)c1 (stereo not drawn) was read as GIV-Gai inh inactive and HCMV UL50-53 inh inactive.
For CCN(CC)c1ccc(/C=c2\sc3n(c2=O)C(c2ccc(OC)cc2OC)C(C(C)=O)=C(C)N=3)c(OC)c1 (stereo not drawn) the results were GIV-Gai inh 85 and HCMV UL50-53 inh inactive.
For N#CC1=C(N)OC2=C(CC/C2=C/c2ccccc2)C1c1ccccc1 (stereo not drawn) the results were GIV-Gai inh -57 and HCMV UL50-53 inh inactive.
Screening CCN1CC2=C(OC(N)=C(C#N)C2c2ccc(F)cc2)/C(=C/c2ccc(F)cc2)C1 (stereo not drawn) returned GIV-Gai inh inactive.
For O=c1[nH]c2cc(Br)cnc2[nH]1 the results were GIV-Gai inh inactive and HCMV UL50-53 inh 77.
O=c1[nH]c2ccccc2[nH]1 was read as HCMV UL50-53 inh inactive.
`OCCNCC1CC2C=CC1C2` (stereo not drawn) gave GIV-Gai inh inactive and HCMV UL50-53 inh inactive.
For CN(CCO)c1nc(N)c2c(N)nc3c(c2c1C#N)CC(=O)N3C1CCCC1 the results were HCMV UL50-53 inh 101.
N#Cc1c(N2CCCC(C(=O)O)C2)nc(N)c2c(N)nc3c(c12)CC(=O)N3C1CCCC1 (stereo not drawn) was read as HCMV UL50-53 inh inactive.
Screening CC1C(c2ccc(F)cc2)=NOC1C(=O)O (stereo not drawn) returned GIV-Gai inh inactive and HCMV UL50-53 inh inactive.
